Experimental data published in patent US8959984B2, “Proteome-wide quantification of small molecule binding to cellular target proteins” (priority 2007, dated 2015).

Sequences of proteins named here, by UniProt entry; tags and fusion partners are left off. A change or cut given only in a name is not applied to a line headed by its entry.
UniProt Q460N5, whole entry: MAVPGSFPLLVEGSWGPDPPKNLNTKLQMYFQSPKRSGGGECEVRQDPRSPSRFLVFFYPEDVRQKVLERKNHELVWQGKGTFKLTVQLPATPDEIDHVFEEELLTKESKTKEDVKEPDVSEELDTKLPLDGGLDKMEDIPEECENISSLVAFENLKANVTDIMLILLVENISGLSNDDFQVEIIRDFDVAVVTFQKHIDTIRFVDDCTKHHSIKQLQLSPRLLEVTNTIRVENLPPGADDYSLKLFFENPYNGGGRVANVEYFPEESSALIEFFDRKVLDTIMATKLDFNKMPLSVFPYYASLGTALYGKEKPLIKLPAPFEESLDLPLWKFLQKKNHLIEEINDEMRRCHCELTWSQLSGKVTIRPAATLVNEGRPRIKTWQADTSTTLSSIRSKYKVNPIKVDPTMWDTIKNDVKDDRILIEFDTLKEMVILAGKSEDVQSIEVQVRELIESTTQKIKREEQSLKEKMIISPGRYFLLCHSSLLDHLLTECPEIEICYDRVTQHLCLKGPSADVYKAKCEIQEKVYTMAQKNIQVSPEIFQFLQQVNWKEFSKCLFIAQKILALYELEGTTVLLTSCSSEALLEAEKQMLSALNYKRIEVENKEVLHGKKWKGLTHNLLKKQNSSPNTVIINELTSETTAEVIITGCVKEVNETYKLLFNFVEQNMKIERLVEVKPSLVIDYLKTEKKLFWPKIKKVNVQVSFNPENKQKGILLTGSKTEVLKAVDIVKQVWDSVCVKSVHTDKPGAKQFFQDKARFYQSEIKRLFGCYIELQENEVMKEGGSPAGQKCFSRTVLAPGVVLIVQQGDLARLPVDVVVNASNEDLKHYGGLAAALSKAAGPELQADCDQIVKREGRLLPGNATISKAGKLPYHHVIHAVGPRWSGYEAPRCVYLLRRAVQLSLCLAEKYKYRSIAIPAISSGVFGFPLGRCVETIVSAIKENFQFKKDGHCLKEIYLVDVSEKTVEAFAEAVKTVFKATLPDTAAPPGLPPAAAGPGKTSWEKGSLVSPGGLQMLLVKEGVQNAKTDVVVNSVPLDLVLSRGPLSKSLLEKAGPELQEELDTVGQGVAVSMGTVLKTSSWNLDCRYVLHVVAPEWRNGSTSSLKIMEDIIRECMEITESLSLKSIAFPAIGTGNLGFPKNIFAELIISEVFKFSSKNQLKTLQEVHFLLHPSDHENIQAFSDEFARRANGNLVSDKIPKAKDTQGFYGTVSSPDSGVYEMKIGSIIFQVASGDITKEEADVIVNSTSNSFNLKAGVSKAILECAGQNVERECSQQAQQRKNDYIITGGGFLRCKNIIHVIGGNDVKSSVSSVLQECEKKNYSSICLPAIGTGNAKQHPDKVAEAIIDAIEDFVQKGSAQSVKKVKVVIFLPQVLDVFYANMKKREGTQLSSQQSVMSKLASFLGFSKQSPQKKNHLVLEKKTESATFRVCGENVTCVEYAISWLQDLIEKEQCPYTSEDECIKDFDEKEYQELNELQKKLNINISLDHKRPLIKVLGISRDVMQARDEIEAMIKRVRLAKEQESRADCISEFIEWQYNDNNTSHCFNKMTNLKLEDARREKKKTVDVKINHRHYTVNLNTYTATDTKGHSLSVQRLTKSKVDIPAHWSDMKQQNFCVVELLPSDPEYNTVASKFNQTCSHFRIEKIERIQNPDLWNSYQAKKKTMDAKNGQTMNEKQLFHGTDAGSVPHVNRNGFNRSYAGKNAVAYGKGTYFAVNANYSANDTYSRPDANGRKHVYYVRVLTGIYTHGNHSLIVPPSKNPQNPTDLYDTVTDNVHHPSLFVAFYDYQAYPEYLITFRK
UniProt Q13557, whole entry: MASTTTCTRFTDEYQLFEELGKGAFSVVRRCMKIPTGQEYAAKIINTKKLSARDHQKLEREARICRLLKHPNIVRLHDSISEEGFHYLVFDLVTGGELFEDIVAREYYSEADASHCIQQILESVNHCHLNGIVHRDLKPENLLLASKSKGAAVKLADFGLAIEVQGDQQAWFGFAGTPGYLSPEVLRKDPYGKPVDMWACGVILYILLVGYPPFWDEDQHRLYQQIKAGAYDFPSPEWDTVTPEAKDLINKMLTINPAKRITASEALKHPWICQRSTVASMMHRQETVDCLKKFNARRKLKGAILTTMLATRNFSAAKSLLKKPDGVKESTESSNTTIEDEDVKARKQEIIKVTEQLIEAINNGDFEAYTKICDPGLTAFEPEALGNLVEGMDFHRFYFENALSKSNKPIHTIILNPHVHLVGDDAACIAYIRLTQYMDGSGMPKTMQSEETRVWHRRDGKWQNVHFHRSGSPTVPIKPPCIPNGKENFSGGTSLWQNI
UniProt P43490: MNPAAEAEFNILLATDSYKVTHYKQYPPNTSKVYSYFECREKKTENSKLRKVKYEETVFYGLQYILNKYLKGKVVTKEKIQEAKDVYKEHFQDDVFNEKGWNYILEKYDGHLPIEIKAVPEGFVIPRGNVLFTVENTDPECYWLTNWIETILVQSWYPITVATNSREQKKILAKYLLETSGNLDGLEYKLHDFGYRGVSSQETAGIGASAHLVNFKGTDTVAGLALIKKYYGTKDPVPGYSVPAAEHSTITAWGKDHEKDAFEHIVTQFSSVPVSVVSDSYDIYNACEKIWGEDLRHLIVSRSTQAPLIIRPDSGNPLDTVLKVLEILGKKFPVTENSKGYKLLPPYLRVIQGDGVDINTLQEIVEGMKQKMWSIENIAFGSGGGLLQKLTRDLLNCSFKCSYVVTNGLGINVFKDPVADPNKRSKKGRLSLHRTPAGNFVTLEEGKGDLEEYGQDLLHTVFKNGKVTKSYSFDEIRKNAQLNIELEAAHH
UniProt P24863: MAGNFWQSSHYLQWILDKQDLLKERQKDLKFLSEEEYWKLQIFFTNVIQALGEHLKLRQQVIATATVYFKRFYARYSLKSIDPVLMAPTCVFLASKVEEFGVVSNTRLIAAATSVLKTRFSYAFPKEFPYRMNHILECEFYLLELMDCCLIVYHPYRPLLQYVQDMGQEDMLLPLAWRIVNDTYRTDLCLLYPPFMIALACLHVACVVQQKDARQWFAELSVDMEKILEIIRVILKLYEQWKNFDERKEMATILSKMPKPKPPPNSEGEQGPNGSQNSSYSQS

Experiments:
Assay in all cases: Ki determination for immobilized VI16742: two consecutive incubations, control beads, ligand concentration and incubation time controls (Tables 7, 8)
Assay type in all cases: binding
[1] = target: cellular target proteins in HeLa cell lysate (Homo sapiens, UniProt Q460N5); details: Ki (VI16742), PARP14 IPI00291215
[2] = target: T1, cellular target proteins in HeLa cell lysate (Homo sapiens, UniProt O14965); details: Ki (VI16742), AurA (AURKA) IPI00298940
T1 sequence (O14965 1-403): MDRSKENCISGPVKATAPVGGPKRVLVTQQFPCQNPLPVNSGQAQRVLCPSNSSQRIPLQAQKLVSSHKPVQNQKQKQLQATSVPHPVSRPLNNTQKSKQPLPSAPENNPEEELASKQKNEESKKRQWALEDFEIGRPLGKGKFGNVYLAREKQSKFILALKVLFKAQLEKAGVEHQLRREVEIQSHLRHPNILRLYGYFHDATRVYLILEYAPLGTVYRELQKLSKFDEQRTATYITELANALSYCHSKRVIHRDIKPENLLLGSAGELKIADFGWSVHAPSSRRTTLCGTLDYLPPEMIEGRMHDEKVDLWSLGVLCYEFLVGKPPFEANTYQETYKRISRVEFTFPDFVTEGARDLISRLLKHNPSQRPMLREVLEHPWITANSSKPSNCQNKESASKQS

[3] = target: cellular target proteins in HeLa cell lysate (Homo sapiens, UniProt Q13557); details: Ki (VI16742), CaMK2d (CAMK2D) IPI00828081
[4] = target: T2, cellular target proteins in HeLa cell lysate (Homo sapiens, UniProt O75385); details: Ki (VI16742), ULK1 IPI00289357
T2 sequence (O75385 1-1050): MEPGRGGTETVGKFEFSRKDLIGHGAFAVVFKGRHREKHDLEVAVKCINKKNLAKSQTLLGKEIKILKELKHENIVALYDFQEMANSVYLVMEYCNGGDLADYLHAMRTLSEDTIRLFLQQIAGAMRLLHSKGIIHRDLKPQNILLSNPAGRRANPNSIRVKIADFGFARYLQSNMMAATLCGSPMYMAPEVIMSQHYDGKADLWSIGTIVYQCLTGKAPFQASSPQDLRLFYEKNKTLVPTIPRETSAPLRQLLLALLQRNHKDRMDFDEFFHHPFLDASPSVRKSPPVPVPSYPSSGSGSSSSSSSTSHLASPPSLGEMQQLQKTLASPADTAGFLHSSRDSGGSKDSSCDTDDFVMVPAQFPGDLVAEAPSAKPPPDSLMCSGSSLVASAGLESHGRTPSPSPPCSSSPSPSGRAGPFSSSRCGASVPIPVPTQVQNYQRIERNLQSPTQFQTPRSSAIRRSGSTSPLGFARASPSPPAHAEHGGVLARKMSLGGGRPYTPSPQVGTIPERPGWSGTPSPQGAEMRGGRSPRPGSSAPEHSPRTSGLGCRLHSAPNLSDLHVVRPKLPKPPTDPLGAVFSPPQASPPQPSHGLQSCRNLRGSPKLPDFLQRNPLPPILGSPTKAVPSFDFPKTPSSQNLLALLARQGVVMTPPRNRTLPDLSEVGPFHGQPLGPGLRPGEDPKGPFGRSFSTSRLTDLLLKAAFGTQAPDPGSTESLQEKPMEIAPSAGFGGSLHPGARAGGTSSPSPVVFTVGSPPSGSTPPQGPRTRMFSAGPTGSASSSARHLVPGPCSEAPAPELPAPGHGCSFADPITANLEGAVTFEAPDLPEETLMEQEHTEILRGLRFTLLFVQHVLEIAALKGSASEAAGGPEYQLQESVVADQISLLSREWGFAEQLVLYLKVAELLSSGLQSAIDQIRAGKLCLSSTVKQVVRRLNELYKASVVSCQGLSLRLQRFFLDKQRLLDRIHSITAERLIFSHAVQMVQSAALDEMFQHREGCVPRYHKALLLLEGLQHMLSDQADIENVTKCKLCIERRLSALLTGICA

[5] = target: cellular target proteins in HeLa cell lysate (Homo sapiens, UniProt P43490); details: Ki (VI16742), NAMPT IPI00018873
[6] = target: cellular target proteins in HeLa cell lysate (Homo sapiens, UniProt P24863); details: Ki (VI16742), CCNC IPI00031076

CC(C)n1c(=O)ccc2cnc(Nc3ccc(OCCN)cc3)nc21 [V16742]
Ki [1]: 42.5 µM
Ki [2]: 3.23 µM
Ki [3]: 1.9 µM
Ki [4]: 13 µM
Ki [5]: 40.6 µM
Ki [6]: 57 µM
